Results on one compound are retold here after PubChem BioAssay AID651783 (The Scripps Research Institute Molecular Screening Center, 2012).

Amino acid sequences for entries named in this document (tags omitted).
UniProt Q96RJ0, whole entry: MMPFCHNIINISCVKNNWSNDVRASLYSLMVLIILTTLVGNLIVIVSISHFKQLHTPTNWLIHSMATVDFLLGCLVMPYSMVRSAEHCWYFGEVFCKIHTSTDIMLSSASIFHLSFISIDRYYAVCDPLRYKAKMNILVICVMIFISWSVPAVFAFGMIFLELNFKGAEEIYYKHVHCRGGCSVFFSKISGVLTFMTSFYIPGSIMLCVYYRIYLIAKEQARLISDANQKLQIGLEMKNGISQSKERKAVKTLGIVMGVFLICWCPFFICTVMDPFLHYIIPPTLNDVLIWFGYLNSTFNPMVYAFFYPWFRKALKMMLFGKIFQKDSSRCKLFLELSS

The entries are a selection whose mix differs from that of the whole data set. The source made the active and inactive calls.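 How the source made its calls: active means activation above a cutoff set at the run's mean compound activation plus 3 SD (cut at about 39% in these data); inactive means the rest.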

The assay has as its target Trace amine-associated receptor 1 (Homo sapiens) (UniProt Q96RJ0). As to the kind of experiment: activators of TAAR1 calcium signal, triplicate retest – Fluo-8 calcium fluorescence, CHO RD-HGA16 cells, confirmation (AID 651783).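 Further: promiscuous G-alpha-16 overexpression reroutes TAAR1 signalling from cAMP to calcium; peak fluorescence divided by basal pre-compound fluorescence per well; 0% = DMSO wells and 100% = phenethylamine at EC100.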 The note with it: CHO RD-HGA16 TAAR1, Fluo-8 calcium fluorescence; at 3 µM; stronger effect = higher value; scaled: DMSO 0%, maximal phenethylamine 100%.
Consider `CP(=O)(OC12CC3CC(CC(C3)C1)C2)OC12CC3CC(CC(C3)C1)C2`, for which the activation is inactive: 28.4%.
